In this assay the target is Amine oxidase [flavin-containing] A (Homo sapiens, UniProt P21397).

By UniProt entry, the sequences of proteins in these tests, tags left out.
UniProt P21397, whole entry: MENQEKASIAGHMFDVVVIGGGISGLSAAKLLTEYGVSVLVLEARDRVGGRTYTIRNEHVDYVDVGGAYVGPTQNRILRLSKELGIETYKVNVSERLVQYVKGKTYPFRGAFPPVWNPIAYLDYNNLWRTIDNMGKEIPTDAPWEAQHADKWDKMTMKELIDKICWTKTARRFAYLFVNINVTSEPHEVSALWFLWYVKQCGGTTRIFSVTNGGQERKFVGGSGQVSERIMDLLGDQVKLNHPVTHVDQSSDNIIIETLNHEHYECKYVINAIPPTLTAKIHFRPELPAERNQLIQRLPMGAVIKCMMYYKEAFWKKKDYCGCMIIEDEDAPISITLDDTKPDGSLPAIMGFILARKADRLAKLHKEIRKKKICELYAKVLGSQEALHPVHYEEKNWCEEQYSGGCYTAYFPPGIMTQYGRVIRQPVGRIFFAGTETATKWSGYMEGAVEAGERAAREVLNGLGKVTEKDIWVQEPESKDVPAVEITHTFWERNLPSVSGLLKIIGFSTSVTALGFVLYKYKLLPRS

Take `C#CCN(C)Cc1ccccc1` [PARGYLINE]: the IC50 amounted to 40 µM.

The term IC50 denotes the midpoint of a concentration-inhibition curve.

The record behind these values is ChEMBL document CHEMBL5550170, “Discovery of novel benzimidazole derivatives as selective and reversible monoamine oxidase B inhibitors for Parkinson's disease treatment” (Eur J Med Chem, 2024).
